{"sequences": {"note": "Sequences of proteins named here, by UniProt entry; tags and fusion partners are left off.", "UniProt P62136, whole entry": "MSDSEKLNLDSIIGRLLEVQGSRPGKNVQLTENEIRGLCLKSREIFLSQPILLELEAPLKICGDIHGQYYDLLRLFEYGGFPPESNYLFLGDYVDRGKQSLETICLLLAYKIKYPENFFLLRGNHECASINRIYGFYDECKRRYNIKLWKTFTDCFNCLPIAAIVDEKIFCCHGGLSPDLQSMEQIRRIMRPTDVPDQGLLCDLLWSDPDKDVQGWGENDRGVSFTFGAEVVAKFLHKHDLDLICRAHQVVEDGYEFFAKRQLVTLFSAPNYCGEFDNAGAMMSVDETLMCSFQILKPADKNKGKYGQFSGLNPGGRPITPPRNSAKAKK"}, "source": "PubChem BioAssay AID2235", "about": "(The Scripps Research Institute Molecular Screening Center, 2010)", "note": "Only a part is listed here, and it is no random draw. Some salts or complexes appear as unconnected parts, following the source record. Active and inactive are the calls of the source.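 Rule for the calls: active = inhibition above the mean inhibition of all tested compounds plus 3 SD, computed separately for each screening campaign (cut at about 15% in these data); inactive = the rest.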"}
{"biological_target": "Serine/threonine-protein phosphatase PP1-alpha catalytic subunit (Homo sapiens) (UniProt P62136)", "experiment": "inhibition of human PP1 catalytic subunit – biochemical, fluorescence, OMFP substrate, single point, counter-screen for PP5 inhibitor project, primary screen (AID 2235)", "details": "purified PP1alpha, at 6.7 µM, hits give high values"}
{"molecule": "CCOC(=O)c1ccc(NP(C)(=O)Oc2ccc(Cl)cc2)cc1", "note": "(centres undefined)", "inhibition": "inactive: 2.31%"}
{"molecule": "CP(=O)(OC12CC3CC(CC(C3)C1)C2)OC12CC3CC(CC(C3)C1)C2", "inhibition": "inactive: 3.66%"}
{"molecule": "Nc1ccc2c(ccc3cccnc32)n1.O=[N+]([O-])c1cc([N+](=O)[O-])c(O)c([N+](=O)[O-])c1", "inhibition": "inactive: -4.07%"}
{"molecule": "CN(C)C(=O)c1c([N+](=O)[O-])cc([N+](=O)[O-])cc1[N+](=O)[O-]", "inhibition": "inactive: 4.57%"}
{"molecule": "CC(C)(C)c1ccc(OP(C)(=O)O)cc1", "inhibition": "inactive: -1.13%"}
{"molecule": "COc1ccccc1OP(C)(=O)Nc1ccccc1Br", "note": "(centres undefined)", "inhibition": "inactive: 1.42%"}
{"molecule": "CP(=O)(Nc1ccc(Cl)cc1)Oc1ccc(F)cc1", "note": "(centres undefined)", "inhibition": "inactive: 1.65%"}
{"molecule": "O=C(OCCCN1CCCC1)C(O)(c1ccccc1)C1CCCCC1", "note": "(centres undefined)", "inhibition": "inactive: -4.55%"}
{"molecule": "COc1ccccc1OP(C)(=O)Nc1c(C)n(C)n(-c2ccccc2)c1=O", "note": "(centres undefined)", "inhibition": "inactive: 2.33%"}
{"molecule": "CCc1ccc(OP(C)(=O)Nc2cccnc2)cc1", "note": "(centres undefined)", "inhibition": "inactive: 1.87%"}
{"molecule": "CP(=O)(Oc1ccccc1)N1CCOC1=O", "note": "(centres undefined)", "inhibition": "inactive: 3.13%"}
{"molecule": "COc1ccc(OP(C)(=O)Nc2ccc(Br)cc2)cc1", "note": "(centres undefined)", "inhibition": "inactive: 0.19%"}
{"molecule": "CCN(CC)CC(O)COC(=O)C(O)(c1ccccc1)C1CCCCC1", "note": "(centres undefined)", "inhibition": "inactive: -2.59%"}
{"molecule": "COc1ccccc1OP(C)(=O)Nc1ccc(C)cc1C", "note": "(centres undefined)", "inhibition": "inactive: -1.74%"}
{"molecule": "CP(=O)(Nc1ccccn1)Oc1ccccc1", "note": "(centres undefined)", "inhibition": "inactive: 0.41%"}
{"molecule": "CCc1ccc(OP(C)(=O)O)cc1", "inhibition": "inactive: -5.21%"}
{"molecule": "O=[N+]([O-])c1cc([N+](=O)[O-])c(Nc2ccccn2)c([N+](=O)[O-])c1", "inhibition": "inactive: 2.33%"}
{"molecule": "Cc1c(NP(C)(=O)Oc2ccc(C(C)C)cc2)c(=O)n(-c2ccccc2)n1C", "note": "(centres undefined)", "inhibition": "inactive: -0.27%"}
{"molecule": "COc1ccc(OP(C)(=O)Nc2ccccn2)cc1", "note": "(centres undefined)", "inhibition": "inactive: 1.28%"}
{"molecule": "CN(C)CCOC(=O)C(O)(c1ccccc1)C1CCCC1", "note": "(centres undefined)", "inhibition": "inactive: -0.38%"}
{"molecule": "COc1ccccc1OP(C)(=O)Nc1ccc(Br)cc1", "note": "(centres undefined)", "inhibition": "inactive: -1.96%"}
{"molecule": "CP(=O)(OCCOc1ccccc1)OCCOc1ccccc1", "inhibition": "inactive: -2.92%"}
{"molecule": "CP(=O)(Nc1ccc(Cl)cc1Cl)Oc1ccccc1", "note": "(centres undefined)", "inhibition": "inactive: 2.64%"}
{"molecule": "Cc1nc2ccc3ccccc3c2o1.O=[N+]([O-])c1cc([N+](=O)[O-])c(O)c([N+](=O)[O-])c1", "inhibition": "inactive: -3.06%"}
{"molecule": "COc1ccccc1OP(C)(=O)Nc1ccc(C)c(C)c1", "note": "(centres undefined)", "inhibition": "inactive: 1.56%"}
{"molecule": "COc1ccc(OP(C)(=O)Nc2ccccc2Br)cc1", "note": "(centres undefined)", "inhibition": "inactive: -1.05%"}
{"molecule": "Cc1cc(C)cc(OP(C)(=O)Nc2cccc(C(F)(F)F)c2)c1", "note": "(centres undefined)", "inhibition": "inactive: -0.28%"}
{"molecule": "CP(=O)(Nc1ccccc1)Oc1ccc(F)cc1", "note": "(centres undefined)", "inhibition": "inactive: -0.11%"}
{"molecule": "O=[N+]([O-])c1cc([N+](=O)[O-])c(OC2CCCCC2O)c([N+](=O)[O-])c1", "note": "(centres undefined)", "inhibition": "inactive: 0.97%"}
{"molecule": "CCCCCOc1ccc(NP(C)(=O)Oc2ccc(Cl)cc2Cl)cc1", "note": "(centres undefined)", "inhibition": "inactive: 4.47%"}
{"molecule": "CCN(CC)CCCOC(=O)C(O)(c1ccccc1)C1CCCCC1", "note": "(centres undefined)", "inhibition": "inactive: -3.93%"}
{"molecule": "CCOC(=O)c1ccc(NP(C)(=O)Oc2ccc(F)cc2)cc1", "note": "(centres undefined)", "inhibition": "inactive: -2.83%"}
{"molecule": "COc1ccc(OP(C)(=O)Nc2ccc(SC(F)(F)F)cc2)cc1", "note": "(centres undefined)", "inhibition": "inactive: -4.43%"}
{"molecule": "COc1ccc2c(c1O)-c1c(O)c(OC)cc3c1[C@H](C2)[N+](C)(C)CC3.O=[N+]([O-])c1cc([N+](=O)[O-])c([O-])c([N+](=O)[O-])c1[O-]", "inhibition": "inactive: 0.11%"}
{"molecule": "O=C(OC1CN2CCC1CC2)c1ccc([N+](=O)[O-])cc1", "note": "(centres undefined)", "inhibition": "inactive: -2.24%"}
{"molecule": "O=C(OCCN1CCN(CCOCc2ccccc2)CC1)C(O)(c1ccccc1)c1ccccc1", "inhibition": "inactive: 5.29%"}
{"molecule": "CP(=O)(Nc1ccccc1F)Oc1ccccc1", "note": "(centres undefined)", "inhibition": "inactive: -7.14%"}
{"molecule": "CC(C)c1ccc(OP(C)(=O)Nc2ccc(SC(F)(F)F)cc2)cc1", "note": "(centres undefined)", "inhibition": "inactive: 3.54%"}
{"molecule": "Cc1ccccc1NP(C)(=O)Nc1ccccc1C", "inhibition": "inactive: -1.97%"}
{"molecule": "CP(=O)(Nc1ccc2c(c1)OCCO2)Oc1ccccc1", "note": "(centres undefined)", "inhibition": "inactive: 3.23%"}
{"molecule": "CCOP(C)(=S)SCC(=O)NC(C)(CC)C(=O)O", "note": "(centres undefined)", "inhibition": "inactive: 0.71%"}
{"molecule": "CP(=O)(Nc1ccc(SC(F)(F)F)cc1)Oc1ccc(F)cc1", "note": "(centres undefined)", "inhibition": "inactive: 0.9%"}
{"molecule": "O=[N+]([O-])c1cc([N+](=O)[O-])c(NCC2CCS(=O)(=O)C2)c([N+](=O)[O-])c1", "note": "(centres undefined)", "inhibition": "inactive: -4.43%"}
{"molecule": "CN(C)CCOC(=O)C(O)(c1ccccc1)C1CCCCC1", "note": "(centres undefined)", "inhibition": "inactive: -0.22%"}
